Measurements reported in patent publication US5380713A, “Peptide aldehydes as antithrombotic agents” (Bristol-Myers Squibb Company, priority 1994, dated 1995).
Like-named read-outs stand apart in the source and are kept apart here.

Chains of the proteins cited; added tags and fusions are not shown. Residues count along the entry.
UniProt P00760, 24-246 limits assumed: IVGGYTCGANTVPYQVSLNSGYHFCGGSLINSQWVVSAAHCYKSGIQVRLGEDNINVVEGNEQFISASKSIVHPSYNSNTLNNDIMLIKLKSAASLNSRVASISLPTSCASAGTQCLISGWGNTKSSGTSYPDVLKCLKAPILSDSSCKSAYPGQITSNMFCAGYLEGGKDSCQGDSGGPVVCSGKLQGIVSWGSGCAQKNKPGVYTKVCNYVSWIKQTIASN

Key:
human α-thrombin [1] = target: T1, human α-thrombin (Homo sapiens, UniProt P00734); test: Enzyme assay for the inhibition of thrombin (s-2238 chromogenic substrate); conditions: read-out: IC50 thrombin, incubation of drug with enzyme for 3 minutes, room temperature
Experimental: 1. Enzyme Assays for the Inhibition of Thrombin
Thrombin assay buffer: 145 mM NaCl, 5 mM KCl, 30 mM N-2-hydroxyethyl piperazine-N'-2-ethanesulfonic acid, pH 7.4, 1 mg/ml polyethylene glycol (PEG-8000).
3 mM D-Phe-Pip-Arg-p-nitroanilide (s-2238) in H2 O
3 U/ml purified human α-thrombin dissolved in thrombin assay buffer.
Inhibitors to be tested were dissolved in H2 O, methanol, or DMSO just prior to use.
To each well in a 96-well microtiter plate, 270 μl of assay buffer was added. Human α-thrombin (10 μl of 3 U/ml) was added, then 10 μl of inhibitor were added and mixed. The samples were incubated at room temperature for a defined period of time (3 minutes for initial IC50 determinations). The enzymatic reaction was started with 10 μl of 3 mM s-2238 substrate and continued at room temperature. The change in optical density was measured at 405 nm. A kinetic microplate reader (Molecular Devices Corporation .upsilon.max) was used to measure the change in optical density over time.
(§1) Results are reported in Table I as IC50 values, i.e., the drug concentration in mole/liter which caused 50% inhibition of the enzyme activity (after incubation of the drug with the enzyme for 3 minutes).

human α-thrombin [2] = target: T1, human α-thrombin; test: Concentration required for doubling thrombin clotting time in human plasma; conditions: concentration of drug which caused a doubling of the thrombin clotting time in human plasma
Experimental: Procedure for Determining the Concentration Required for Doubling Thrombin Clotting Time--Clotting Time Assays
Owren's Veronal Buffer: 125 mM NaCl, 28.4 mM sodium barbital, pH 7.35.
Human citrated plasma obtained from human volunteers or citrated plasma obtained from dosed animals (prepared as described below).
25 NIH Units/ml human α-thrombin in thrombin buffer for use with rat plasma. 10 NIH Units/ml human α-thrombin in thrombin buffer for use with human plasma.
Human Plasma: Blood from human volunteers was drawn into vacutainer tubes containing one tenth final volume of 0.129M (3.8%) buffered citrate (16 mg Sodium Citrate 2H2 O and 2.1 mg citric acid per milliliter of H2 O). The blood was centrifugated at 3500 rpm (480 xg) for 15 minutes at room temperature (using a Sorvall RT 6000B centrifugate). The plasma was removed, pooled, and aliquoted into small tubes which were stored frozen for later use.
Clotting times were determined by pipetting 0.1 ml of Owren's buffer (pre-warmed to 37° C.) and 0.1 ml of human or rat plasma into yellow sample cuvettes. For studies with human plasma 10 U/ml human thrombin (10 ml) was placed in the reservoir assembly station of the MLA 700. (Medical Laboratory Automation, Electra 700 Reservoir Assembly). For rat studies, the human thrombin concentration was 25 U/ml. The cuvettes were vortexed and then placed on the MLA 700 sample wheel. The coagulation timer (MLA 700) automatically dispenses 0.1 ml human thrombin into the sample in each cuvette. Detection of the fibrin clot was determined optically by the MLA 700.
Studies were performed to determine the concentration of drug which caused a doubling of the clotting time (DTT) in human plasma. From standard curves of thrombin activity added to the sample versus the clotting time, the concentration of drug which caused a doubling of the thrombin clotting time corresponded to inhibition of approximately 1/2 of the added thrombin clotting activity.

[3] = target: bovine pancreatic trypsin (Bos taurus, UniProt P00760); test: Enzyme assay for the inhibition of trypsin (Z-Val-Gly-Arg-pNA substrate); conditions: read-out: IC50 Trypsin, incubation of drug with enzyme for 3 minutes, room temperature
Experimental: 2. Enzyme Assays for the Inhibition of Trypsin
Trypsin assay buffer: 2 mM CaCl2, 50 mM Tris/Cl pH 8.0.
3 mM Z-Val-Gly-Arg-pNA (Chromzyme TRY) dissolved in water.
6 μg/ml of purified bovine pancreatic trypsin dissolved in trypsin assay buffer.
Inhibitors to be tested were dissolved in H2 O, methanol or DMSO just prior to use.
To each well in a 96-well microtiter plate, 270 μl of assay buffer was added. Bovine trypsin (10 μg/ml) was added. Inhibitor (10 μl) was added, mixed, and then incubated at room temperature for 3 minutes. The enzymatic reaction was started with 10 μl of 3 mM Z-Val-Gly-Arg-pNA substrate. The change in optical density was measured at 405 nm at room temperature. A kinetic microplate reader (Molecular Devices Corporation .upsilon.max) was used to measure the change in optical density over time.
as §1

SMILES | IC50 (human α-thrombin [1]; tested form: HCl) [nM] | DCT (human α-thrombin [2]; tested form: HCl) [µM] | IC50 ([3]; tested form: HCl) [nM] | IC50 (human α-thrombin [1]; tested form: HCl hydrate) [nM] | DCT (human α-thrombin [2]; tested form: HCl hydrate) [µM] | IC50 ([3]; tested form: HCl hydrate) [nM]
N=C(N)NCCCC(C=O)NC(=O)Cn1c(N)nc(-c2ccccc2)c1-c1ccccc1 (stereo not drawn) | 7900 |  |  |  |  | 
N=C(N)NCCCC(C=O)NC(=O)C1CCCN1C(=O)[C@H](N)Cc1ccc(O)cc1 (stereo partly drawn) | 7040 | 5.0 | 130 |  |  | 
N=C(N)NCCCC(C=O)NC(=O)[C@H](N)Cc1ccccc1 (stereo partly drawn) | > 200000 | > 200 |  |  |  | 
Cc1ccc(S(=O)(=O)NC(C=O)CCCNC(=N)N)cc1 (stereo not drawn) | 150000 | 150 |  |  |  | 
N=C(N)NCCC[C@@H](C=O)NC(=O)CNC(=O)CCc1ccccc1 |  |  |  | 18800 | 15 | 190
N=C(N)NCCCC(C=O)NC(=O)C1CCCN1C(=O)CC(NC(=O)CC(N)c1ccccc1)c1ccccc1 (stereo not drawn) | 4690 | 3.0 |  |  |  | 
N=C(N)NCCCC(C=O)NC(=O)C1CCCN1C(=O)c1cc2ccccc2[nH]1 (stereo not drawn) | 1760 | 2.5 | 74 |  |  | 
CC(C)(C)OC(=O)N1CCCC1C(=O)NC(C=O)CCCNC(=N)N (stereo not drawn) | 150000 | 45 |  |  |  | 
N=C(N)NCCCC(C=O)NC(=O)c1cccc(NC(=O)CCc2ccccc2)c1 (stereo not drawn) | 20000 |  |  |  |  | 
N=C(N)NCCCC(C=O)NC(=O)C1CCCN1C(=O)c1ccccc1 (stereo not drawn) | 4690 | 4.0 | 24 |  |  | 
N=C(N)NCCCC(C=O)NC(=O)C1CCCCN1C(=O)[C@H](N)Cc1ccccc1 (stereo partly drawn) |  | 0.28 | 100 |  |  | 
N=C(N)NCCCC(C=O)NC(=O)C1CCCN1CCCC1CCCCC1 (stereo not drawn) | 56000 | 75 |  |  |  | 

Second part, the molecule after the results:

IC50 (human α-thrombin [1]; tested form: HCl) [nM] | DCT (human α-thrombin [2]; tested form: HCl) [µM] | IC50 ([3]; tested form: HCl) [nM] | IC50 (human α-thrombin [1]; tested form: HCl hydrate) [nM] | DCT (human α-thrombin [2]; tested form: HCl hydrate) [µM] | IC50 ([3]; tested form: HCl hydrate) [nM] | SMILES
840 | 1.0 | 24 |  |  |  | N=C(N)NCCCC(C=O)NC(=O)C1CCCN1C(=O)COc1ccccc1 (stereo not drawn)
590 | 0.75 | 18 |  |  |  | N=C(N)NCCCC(C=O)NC(=O)C1CCCN1C(=O)Cc1ccccc1 (stereo not drawn)
290 | 0.5 | 30 |  |  |  | N=C(N)NCCCC(C=O)NC(=O)C1CCCN1C(=O)CC(N)c1ccccc1 (stereo not drawn)
1300 |  | 100 |  |  |  | N=C(N)NCCCC(C=O)NC(=O)C1CCCCN1C(=O)CCc1ccccc1 (stereo not drawn)
1760 | 2.0 | 260 |  |  |  | N=C(N)NCCCC(C=O)NC(=O)C1CCCN1C(=O)C(CN)Cc1ccccc1 (stereo not drawn)
150 | 0.3 | 18 |  |  |  | N=C(N)NCCCC(C=O)NC(=O)C1CCCN1C(=O)CCC1CCCCC1 (stereo not drawn)
390 | 0.4 | 24 |  |  |  | N=C(N)NCCCC(C=O)NC(=O)C1CCCN1C(=O)CCc1ccccc1 (stereo not drawn)
590 | 0.5 | 24 |  |  |  | N=C(N)NCCCC(C=O)NC(=O)C1CCCN1C(=O)CCc1cccs1 (stereo not drawn)
400 |  |  |  |  |  | N=C(N)NCCCC(C=O)NC(=O)C1CCCN1C(=O)CNC1Cc2ccccc2C1 (stereo not drawn)
1170 | 1.0 | 98 |  |  |  | N=C(N)NCCCC(C=O)NC(=O)C1CCCN1C(=O)CCc1ccncc1 (stereo not drawn)
80 | 0.1 | 1200 |  |  |  | N=C(N)NCCCC(C=O)NC(=O)C1CCCN1C(=O)[C@@H](Cc1ccccc1)NC(=O)CN (stereo partly drawn)
150 | 1.0 | 110 |  |  |  | CC(NC(=O)[C@H](N)Cc1ccccc1)C(=O)NC(C=O)CCCNC(=N)N (stereo partly drawn)
1170 | 1.5 | 130 |  |  |  | N=C(N)NCCCC(C=O)NC(=O)C1CCCN1C(=O)CCc1ccc(O)cc1 (stereo not drawn)
880 | 0.5 | 24 |  |  |  | N=C(N)NCCCC(C=O)NC(=O)C1CCCN1C(=O)CCCc1ccccc1 (stereo not drawn)
110 | 0.5 | 200 |  |  |  | N=C(N)NCCCC(C=O)NC(=O)C1CCCN1C(=O)[C@@H](Cc1ccccc1)NC(=N)N (stereo partly drawn)
60 |  |  |  |  |  | N=C(N)NCCCC(C=O)NC(=O)C1CCCN1C(=O)CNS(=O)(=O)c1cccc2c1NCCC2 (stereo not drawn)
